Data from USRE48461E1, “Modulation of androgen receptor expression” (Ionis Pharmaceuticals, Inc., priority 2012, dated 2021).

Legend:
Type in all cases: cell-based, human
AR mRNA [1] = experiment: Time-course AR mRNA expression in C4-2B cells (8, 24, 48 hours)
AR mRNA [2] = experiment: AR RNA expression in LNCaP cells (complete, CSS, CSS+DHT medium); details: for Percent expression of AR in LNCaP cells cultured in complete medium: 48 hours
Method: Cells were plated at 1,000 cells per well. ISIS 560131 or ISIS 569236 was added individually at 0.04 μM, 0.2 μM, 1.0 μM, or 5.0 μM. ISIS 549148 was included as a negative control. MDV3100 was added a dose of 0.04 μM, 0.2 μM, 1.0 μM, or 5.0 μM. μM in a separate set of cells. After an incubation period of 48 hours, RNA levels of AR, PSA and TMPRSS2 were measured.
Cells were plated at 2,000 cells per well and cultured in phenol red-free RPMI supplemented with 5% charcoal stripped serum (Gibco) media for 16 hours. ISIS 560131 or ISIS 569236 was added individually at 0.04 μM, 0.2 μM, 1.0 μM, or 5.0 μM to each cell set. ISIS 549148 was included as a negative control. MDV3100 was added at 0.04 μM, 0.2 μM, 1.0 μM, or 5.0 μM in a separate set of cells. After an incubation period of 4 hrs, DHT was added to the medium to a final concentration of 1 nM as indicated. RNAs were collected 48 hrs later and levels of AR, PSA and TMPRSS2 were measured. In the absence of DHT, AR expression in LNCaP cells was 95%, PSA expression was 7% and TMPRSS2 expression was 24% compared to the untreated control.

AR mRNA [3] = experiment: AR RNA expression in C4-2 cells (complete, CSS+DHT medium); details: 48 hrs
AR mRNA [4] = experiment: AR mRNA levels in LMR20 cells (with/without DHT or R1881); details: R1881 10 nM 72 hrs, ASO 5.0 μM
Method: (§1) LMR20 cells were plated at 1,500 cells per well in phenol red-free medium with CSS. ISIS 560131, ISIS 549458, ISIS 569236, and the LNA gapmer ISIS 554221 were individually added to the culture media at 0.04 μM, 0.2 μM, 1.0 μM, or 5.0 μM concentration. ISIS 549148, which has no known human target sequence, was included as a control. MDV3100 was added on day 1 at a dose of 10 nM to a set of cells, and served as a control. DHT was added on day 1 at a dose of 10 nM for 72 hrs to one set of cells also treated with each of the antisense oligonucleotides or MDV3100. R1881 was added on day 1 at a dose of 10 nM for 72 hrs to another set of cells also treated with each of the antisense oligonucleotides or MDV3100. mRNA levels of AR, prostate-specific antigen (PSA) and TMPRSS2, an androgen-regulated gene (Lin, B., et al., Cancer Res. 1999. 59: 4180), were measured. Results are presented in Tables 43-45 as mRNA levels expressed as a percentage of the baseline values. mRNA levels may be lowered or increased after treatment.

TMPRSS2 mRNA [5] = experiment: TMPRSS2 mRNA levels in LMR20 cells; details: R1881 10 nM 72 hrs, ASO 0.04 μM
Method: as §1

full length AR mRNA [6] = experiment: Full-length AR RNA in VCaP cells (complete, CSS+DHT medium); details: 48 hrs
TMPRSS2 mRNA [7] = experiment: TMPRSS2 expression in VCaP cells; details: complete medium, 1.0 μM, 48 hrs
full length AR mRNA [8] = experiment: Full-length AR RNA in 22RV1 cells (complete, CSS+DHT medium); details: 48 hrs

GGCTACTACGCCGTCA (3-10-3 (S)-cEt gapmer, chemistry not fully specified) [ISIS 549148]
Percent expression of AR compared to the control group in 8 hours (AR mRNA [1]; 1 μM): 111%
Percent expression of AR in LNCaP cells cultured in CSS + DHT medium (AR mRNA [2]; CSS + DHT (1 nM) medium, 5.0 μM, 48 hrs): 111%
Percent expression of AR in LNCaP cells cultured in complete medium (AR mRNA [2]; 0.2 μM): 111%
Percent expression of AR (AR mRNA [3]; 5.0 μM): 111%

CNC(=O)c1ccc(N2C(=S)N(c3ccc(C#N)c(C(F)(F)F)c3)C(=O)C2(C)C)cc1F [MDV3100, 4-(3-(4-cyano-3-(trifluoromethyl)phenyl)-5,5-dimethyl-4-oxo-2-thioxoimidazolidin-1-yl)-2-fluoro-N-methylbenzamide]
AR mRNA levels (% baseline value) after treatment with R1881 (AR mRNA [4]): 136 % baseline value
TMPRSS2 mRNA levels (% baseline value) after treatment with R1881 (TMPRSS2 mRNA [5]): 114 % baseline value
Percent expression of AR compared to the control group in 8 hours (AR mRNA [1]; 5.0 μM): 103%
Percent expression of AR in LNCaP cells cultured in complete medium (AR mRNA [2]; 0.04 μM): 111%
Percent expression of AR (AR mRNA [3]; 1 μM): 156%
Percent expression of AR (AR mRNA [3]; 5.0 μM): 148%
Percent of gene expression, Full length AR (full length AR mRNA [6]; CSS + DHT medium, 0.04 μM): 114%
Percent of gene expression, Full length AR (full length AR mRNA [6]; CSS + DHT medium, 0.2 μM): 94%
Percent of gene expression, Full length AR (full length AR mRNA [6]; CSS + DHT medium, 1.0 μM): 142%
Percent of gene expression, Full length AR (full length AR mRNA [6]; CSS + DHT medium, 5.0 μM): 233%
Percent of gene expression, Full length AR (full length AR mRNA [6]; complete medium, 0.04 μM): 136%
Percent of gene expression, Full length AR (full length AR mRNA [6]; complete medium, 0.2 μM): 135%
Percent of gene expression, Full length AR (full length AR mRNA [6]; complete medium, 1.0 μM): 160%
Percent of gene expression, Full length AR (full length AR mRNA [6]; complete medium, 5.0 μM): 178%
Percent of gene expression, TMPRSS2 (TMPRSS2 mRNA [7]): 135%
Percent of gene expression, Full length AR (full length AR mRNA [8]; CSS + DHT medium, 0.04 μM): 5%
Percent of gene expression, Full length AR (full length AR mRNA [8]; CSS + DHT medium, 0.2 μM): 11%
Percent of gene expression, Full length AR (full length AR mRNA [8]; CSS + DHT medium, 1.0 μM): 6%
Percent of gene expression, Full length AR (full length AR mRNA [8]; CSS + DHT medium, 5.0 μM): 18%
Percent of gene expression, Full length AR (full length AR mRNA [8]; complete medium, 0.04 μM): 103%
Percent of gene expression, Full length AR (full length AR mRNA [8]; complete medium, 0.2 μM): 93%
Percent of gene expression, Full length AR (full length AR mRNA [8]; complete medium, 1.0 μM): 81%
Percent of gene expression, Full length AR (full length AR mRNA [8]; complete medium, 5.0 μM): 83%

TGATTTAATGGTTGCA [ISIS 569236] (cEt/MOE gapmer chemistry, further chemistry not given here) [targets intron 1]
Percent expression of AR compared to the control group in 24 hours (AR mRNA [1]; 0.04 μM, 24 hours): 103%
